# Numbering of substitutions follows the chain as printed.
# T1: human LRRC15 extracellular domain with C-terminal His tag (human, UniProt Q8TF66 22-538)
# T1 construct: Recombinant, made in HEK293; the entry holds the extracellular domain and the His tag; SPR analyte; also called TPP-1545; hLRRC15 CT-His
# T1 sequence: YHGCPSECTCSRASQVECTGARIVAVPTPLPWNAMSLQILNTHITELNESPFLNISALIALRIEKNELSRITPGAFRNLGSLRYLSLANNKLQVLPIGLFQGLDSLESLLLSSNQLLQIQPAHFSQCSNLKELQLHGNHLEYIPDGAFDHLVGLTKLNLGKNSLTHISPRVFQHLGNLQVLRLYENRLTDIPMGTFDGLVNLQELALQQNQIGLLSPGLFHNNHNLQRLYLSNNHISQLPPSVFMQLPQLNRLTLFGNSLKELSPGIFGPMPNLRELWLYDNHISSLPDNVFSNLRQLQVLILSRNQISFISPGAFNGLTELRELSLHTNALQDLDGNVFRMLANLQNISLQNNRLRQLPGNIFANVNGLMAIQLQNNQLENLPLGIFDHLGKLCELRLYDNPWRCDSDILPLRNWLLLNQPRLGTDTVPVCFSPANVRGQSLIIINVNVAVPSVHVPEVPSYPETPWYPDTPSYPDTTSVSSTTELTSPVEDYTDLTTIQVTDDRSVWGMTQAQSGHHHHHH
# T2: cynomolgus (Macaca fascicularis) LRRC15 extracellular domain with C-terminal His tag (cynomolgus monkey (Macaca fascicularis), UniProt Q8TF66 22-538 (human entry))
# T2 construct: Recombinant, made in HEK293; the entry holds the extracellular domain and the His tag; SPR analyte; also called TPP-9046
# T2 chain: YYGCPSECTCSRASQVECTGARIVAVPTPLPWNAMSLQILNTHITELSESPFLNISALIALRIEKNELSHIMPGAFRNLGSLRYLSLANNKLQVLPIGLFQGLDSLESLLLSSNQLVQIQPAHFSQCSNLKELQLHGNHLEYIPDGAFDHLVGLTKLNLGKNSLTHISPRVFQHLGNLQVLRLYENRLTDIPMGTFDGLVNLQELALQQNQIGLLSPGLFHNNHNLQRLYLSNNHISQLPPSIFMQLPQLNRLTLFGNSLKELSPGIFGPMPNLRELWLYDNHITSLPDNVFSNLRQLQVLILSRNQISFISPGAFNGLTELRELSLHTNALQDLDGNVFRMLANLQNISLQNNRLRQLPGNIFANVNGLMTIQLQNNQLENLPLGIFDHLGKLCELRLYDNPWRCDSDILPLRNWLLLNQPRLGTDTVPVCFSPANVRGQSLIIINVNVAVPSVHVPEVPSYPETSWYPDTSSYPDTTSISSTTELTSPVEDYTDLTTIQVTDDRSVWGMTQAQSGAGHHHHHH
# B1: TPP-12942 (antibody, human IgG1, kappa, V domains shown)
# VH: EVQLVQSGAEVKKPGASVKVSCKASGYKFSSYWIEWVKQAPGQGLEWIGEILPGSDTTNYNEKFKDRATFTSDTSINTAYMELSRLRSDDTAVYYCARDRGNYRAWFGYWGQGTLVTVSS
# VL: DIQMTQSPSSLSASVGDRVTITCRASQDISNYLNWYQQKPGGAVKFLIYYTSRLHSGVPSRFSGSGSGTDYTLTISSLQPEDFATYFCQQGEALPWTFGGGTKVEIKR
# notes: Prior art humanized IgG1 kappa antibody, used as comparator; also called huM25; huM25-hIgG1Kappa
# B2: TPP-14392 (antibody, human IgG1, kappa, V domains shown)
# VH: EVQLLESGGGLVQPGGSLRLSCAASGFTFSGYMMSWVRQAPGKGLEWVSGIYPSPGYTYYADSVKGRFTISRDNSKNTLYLQMNSLRAEDTAVYYCAREKASDLSGSYSEALDYWGQGTLVTVSS
# VL: DIQMTQSPDSLSASVGDRVTITCRASQDVGSWLAWYQQKPGKAPKLLIFAASYLESGIPSRFSGSGSGTDFTLTISSLQPEDFATYYCQQANGFPLTFGGGTKVEIKR
# notes: Variant of TPP-1633, human IgG1 kappa; also called 13612-rec05-hIgG1Kappa
# B3: TPP-17074 (antibody, human IgG1, kappa, V domains shown)
# VH: B2 VH with P55G, T58A, Y59L, S102A, S105F
# VL: B2 VL
# notes: Variant of TPP-1633, human IgG1; also called 438H-M161-K22-hIgG1
# B4: TPP-1633 (antibody, human IgG1, kappa, V domains shown)
# VH: B2 VH with S35Q, P55G, Y59N, V93T
# VL: B2 VL with Y53S
# notes: also called 060E-M016-G14-hIgG1
# Experiments:
# [1] = target: T1, human LRRC15 extracellular domain with …; assay: SPR (Example 3), 10°C; kd as listed in Table 6
# Procedure: (§1) To assess if anti-LRRC-15 antibodies show a difference in binding at different temperatures, binding assays were conducted using surface plasmon resonance (SPR). Binding assays were performed on a Biacore T200 instrument at temperatures of 10° C., 20° C., 25° C. and 37° C. with assay buffer HBS EP+, 1 mg/ml BSA (bovine serum albumine), 300 mM NaCl, 0.05% NaN₃. Antibodies were captured via anti-human Fc IgGs covalently amine coupled to a CM5 sensor chip and human LRRC15 was used as an analyte in a concentration series from 1.56-200 nM in multi cycle kinetics mode. Pre-experiments were conducted to have an equal capture level at each temperature. Obtained sensorgrams were fitted to a 1:1 Langmuir binding model to derive kinetic data.
# [2] = target: T1, human LRRC15 extracellular domain with …; assay: SPR Biacore T200, antibody captured, LRRC15 analyte, 10°C
# Procedure: as §1
# [3] = target: T1, human LRRC15 extracellular domain with …; assay: SPR (Example 3), 37°C; kd as listed in Table 6
# Procedure: as §1
# [4] = target: T1, human LRRC15 extracellular domain with …; assay: SPR Biacore T200, antibody captured, LRRC15 analyte, 25°C
# Procedure: as §1
# [5] = target: T1, human LRRC15 extracellular domain with …; assay: SPR (Example 3), 20°C; kd as listed in Table 6
# Procedure: as §1
# [6] = target: T1, human LRRC15 extracellular domain with …; assay: SPR Biacore T200, antibody captured, LRRC15 analyte, 37°C
# Procedure: as §1
# [7] = target: T1, human LRRC15 extracellular domain with …; assay: SPR (Example 3), 25°C; kd as listed in Table 6
# Procedure: as §1
# [8] = target: T1, human LRRC15 extracellular domain with …; assay: calculated from SPR kd, 25°C
# Procedure: as §1
# [9] = target: T1, human LRRC15 extracellular domain with …; assay: SPR Biacore T200, 25°C, antibody captured, LRRC15 analyte
# Procedure: (§2) To assess the binding kinetics and affinity of anti-LRRC15 antibodies as well as their species cross-reactivity profile, binding assays were conducted using surface plasmon resonance (SPR). Binding assays were performed on a Biacore T200 instrument at 25° C. using assay buffer HBS EP+, 1 mg/ml BSA, 300 mM NaCl, 0.05% NaN3. Antibodies were captured via anti-human Fc IgGs covalently amine coupled to a CM5 sensor chip and human, mouse and cynomolgus LRRC15 were used as analytes in a concentration series from 1.56-200 nM in multi cycle kinetics mode. To obtain reliable dissociation rate constants (kd) the dissociation rate was prolonged from 2.000 seconds to 12.000 seconds for two concentrations of antigen injection (25 nM and 200 nM). Obtained sensorgrams were fitted to a 1:1 Langmuir binding model to derive kinetic data.
# [10] = target: T2, cynomolgus (Macaca fascicularis) LRRC15 …; assay: as above
# Procedure: as §2
# [11] = target: T1, human LRRC15 extracellular domain with …; assay: SPR Biacore T200, antibody captured, LRRC15 analyte, 20°C
# Procedure: as §1
# [12] = target: T3, murine LRRC15 extracellular domain with C-terminal His tag (mouse, UniProt Q80X72 22-536); assay: SPR (Example 6), overview table, repeats Table 9; head prints [M^-1]
# T3 construct: Recombinant, made in HEK293; the entry holds the extracellular domain and the His tag; SPR analyte; also called TPP-9045
# Procedure: as §2
# [13] = target: T3, murine LRRC15 extracellular domain with …; assay: SPR Biacore T200, 25°C, antibody captured, LRRC15 analyte
# Procedure: as §2
# [14] = target: T2, cynomolgus (Macaca fascicularis) LRRC15 …; assay: SPR (Example 6), overview table, repeats Table 9; head prints [M^-1]
# Procedure: as §2
# [15] = target: T1, human LRRC15 extracellular domain with …; assay: calculated from SPR kd, 37°C
# Procedure: as §1
# [16] = target: T3, murine LRRC15 extracellular domain with …; assay: binding of the purified IgG, method not given
# [17] = target: T1, human LRRC15 extracellular domain with …; assay: SPR (Example 3), 10°C; kd as listed in Table 6; 10° C.
# Procedure: as §1
# [18] = target: T1, human LRRC15 extracellular domain with …; assay: calculated from SPR kd, 20°C
# Procedure: as §1
Binder,koff [1] [s⁻¹],koff [2] [s⁻¹],kon [2] [M⁻¹ s⁻¹],koff [3] [s⁻¹],koff [4] [s⁻¹],kon [4] [M⁻¹ s⁻¹],koff [5] [s⁻¹],koff [6] [s⁻¹],kon [6] [M⁻¹ s⁻¹],koff [7] [s⁻¹],koff [9] [s⁻¹],kon [9] [M⁻¹ s⁻¹],koff [10] [s⁻¹],kon [10] [M⁻¹ s⁻¹],koff [11] [s⁻¹],kon [11] [M⁻¹ s⁻¹],Kd [12] [nM],Kd [13] [nM],koff [13] [s⁻¹],kon [13] [M⁻¹ s⁻¹],further results
B1,0.0002,0.0002,37000,0.0072,0.0019,90000,0.00088,0.0072,100000,0.0019,0.0011,42000,0.002,55000,0.00088,67000,,,,,Complex Half Life [8]: 6.1 min; Kd [11]: 13 nM
B2,6e-05,6e-05,37000,0.005,0.00034,50000,0.00013,0.005,55000,0.00034,0.00021,37000,0.0004,39000,0.00013,45000,7.5,7.5,0.0012,160000,Kd [2]: 1.6 nM
B3,1.8e-05,1.8e-05,320000,0.0015,0.00012,550000,6.1e-05,0.0015,790000,0.00012,6.8e-05,370000,8.4e-05,530000,6.1e-05,450000,2.1,2.1,0.00016,77000,Kd [14]: 0.16 nM; Complex Half Life [15]: 7.7 min; Kd [10]: 0.16 nM
B4,,0.0014,80000,,0.022,140000,0.0093,,,0.022,0.017,110000,0.029,150000,0.0093,120000,270,270,0.012,45000,Kd [16]: ~200 nM; koff [17]: 0.0014 s⁻¹; Complex Half Life [18]: 1.2 min

# Reference: patent US20240108766A1 (Bayer, published 2024)
